{"sequences": {"note": "Sequences of proteins named here, by UniProt entry; tags and fusion partners are left off.", "UniProt Q9P021, whole entry": "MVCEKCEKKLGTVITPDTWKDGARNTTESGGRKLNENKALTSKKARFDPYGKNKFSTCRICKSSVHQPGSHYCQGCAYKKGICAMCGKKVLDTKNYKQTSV"}, "source": "paper PMC4319893", "about": "(2015)", "biological_target": "CRIPT (Homo sapiens, UniProt Q9P021)", "assay": "fluorescence polarization", "data": [{"binder": "PSD-95 PDZ2 (protein) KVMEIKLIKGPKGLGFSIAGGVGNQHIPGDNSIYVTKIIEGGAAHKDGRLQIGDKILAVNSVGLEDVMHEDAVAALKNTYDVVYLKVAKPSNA", "values": [{"measurement": "Ki", "result": 25, "unit": "µM"}]}]}
